The values that follow are results of earlier work, collected in publication PMC10855781 (International Journal of Molecular Sciences, 2024).

Data set [1] relates to HER-2 positive HCC1954 breast and NCI-N87 gastric cancer xenografts. The conditions noted are these: mice; ref [116]. The source says: (§1) The beneficial properties of the oxime linkage have recently been leveraged for tumor therapy in a variety of other conjugates, which display other peptides, antibodies, polysaccharides or 19-nortestosterone as carriers. […] Both are ADCs consisting of a proprietar ...

Data set [2] relates to gastric adenocarcinoma or gastroesophageal junction adenocarcinoma.
From the text: as §1

In data set [3] the test system is metastatic breast cancer patients.
[4] abbreviates: 1.5 mg/kg every 3 weeks, ref [119].

Turning to ARX788, the “efficacy compared to trastuzumab emtansine (T-DM1)” value in data set [1] is on record as “superior efficacy”. The ORR in data set [2] (1.3, 1.5 or 1.7 mg/kg every 3 weeks, 30 participants, ref [120]) is 37.9%. In data set [2] (in vivo), the “patients incurring grade 3 AEs” value is “four”. Further, in data set [2] (ref [120]), the “median PFS” value is reported as 10.7 months. Besides, in data set [3] (setting [4]), the “median progression free survival (PFS)” value is reported as 17 months and the objective response rate is on record as 65.5%. For the same substance, the “dose-limiting toxicities, drug-related deaths” value in data set [3] (0.33–1.5 mg/kg every 3 or 4 weeks, ref [119]) is given as “No dose-limiting toxicities or drug-related deaths”. In data set [3] (human, in vivo), the “frequency of grade ≥ 3 adverse events” value is reported as 11.6% and the “frequency of hematological toxicities (grade ≥ 3)” value is given as 1.4%.
